In paper PMC6193536 (Bioorganic & medicinal chemistry letters, 2018):

System: panel of human kinases

CN1CCC(c2nc(-c3cccc(S(C)(=O)=O)c3)c(-c3ccnc(Nc4ccc(N5CCNCC5)cc4)n3)s2)CC1 [16a]
kinase selectivity against a panel of human kinases: much improved kinase selectivity profile
